Measurements from US20240208896A1, “PRODRUGS OF KV7 CHANNEL OPENERS” (Xyzagen, Inc., priority 2021, published 2024).

Tested on: mouse maximal electroshock (MES) assay
Experiment: Mouse MES assay with plasma and brain concentration, Compound 29 oral
Type: in vivo, CF-1 mouse
Conditions: male CF-1 mice; oral 30 mg/kg; 0.25, 0.5 and 1 h

`CCNC(=O)CC[C@H](N)C(=O)Nc1cc(NCc2ccc(F)cc2)ccc1NC(=O)OCC.Cl` [Compound 29] was tested, and the “Exposure of ezogabine in plasma and brain” value was “very high in plasma and was present in brain”.
